From patent US10266513B2 (Pfizer Inc., priority 2012, dated 2019)

By UniProt entry, the sequences of proteins in these tests, tags left out. Residues count along the entry.
UniProt P00533, 712-979: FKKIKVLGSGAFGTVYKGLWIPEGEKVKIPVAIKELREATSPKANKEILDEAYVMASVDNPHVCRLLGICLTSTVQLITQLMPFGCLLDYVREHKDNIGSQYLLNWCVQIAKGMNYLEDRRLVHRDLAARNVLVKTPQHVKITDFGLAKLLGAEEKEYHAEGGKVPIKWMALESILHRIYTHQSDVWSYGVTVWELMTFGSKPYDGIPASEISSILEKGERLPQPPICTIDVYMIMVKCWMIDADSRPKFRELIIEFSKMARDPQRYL

Biological target: human EGFR kinase domain (Homo sapiens (Human), UniProt P00533)
Experiment: Human EGFR LanthaScreen Selectivity Assay (TR-FRET)
Type: biochemical
Conditions: 20 μM ATP

## NC(=O)c1c(-c2ccc(Oc3ccc(F)cc3F)cc2)nn([C@@H]2CCCN(C(=O)/C=C/C(F)F)C2)c1N [Example 144, 5-amino-1-{(3R)-1-[(2E)-4,4-difluorobut-2-enoyl]piperidin-3-yl}-3-[4-(2,4-difluorophenoxy)phenyl]-1H-pyrazole-4-carboxamide]
  pIC50: 6.56

pIC50: −log10 of the molar value.
